The list is not random: actives were taken first. Their share in the collection is about 4.2%.
NALP1 yeast inh: NALP1 inflammasome inhibitors in reconstituted yeast, colorimetric, S. cerevisiae, triplicate retest; S. cerevisiae NALP1/ASC/caspase-1 growth, X-gal OD620, 72 h; inhibition, % at 10 µM; 280,000 compounds, 0.61% hits; in the data active means inhibition mostly above about 24%, no sharp cut-off; inactive means mostly below about 32%
ALR H2O2 inh: human ALR oxidase inhibition via reduced H2O2 | 290,000 compounds, 3.8% hits | inhibition, % (no concentration beside the values) | P55789 | purified ALR, DTT oxidation, H2O2 HRP-luminol luminescence;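 active means mean and each replicate at 75% or more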;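 further: stock transfer was 7.5 nL into about 7.5 µL; 0% = neutral wells and 100% = wells with inactivated enzyme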
MC4R antag cAMP: MC4R antagonists of cAMP signaling, primary screen, cell-based, TR-FRET, antagonist arm of biased-ligand search. Melanocortin receptor 4 (Homo sapiens), P32245. MC4R-expressing cells, MTII-stimulated cAMP, LANCE TR-FRET. inhibition, % at 6.5 µM. 360,000 compounds, 0.48% hits;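 active means inhibition above its plate's cutoff, the mean of tested wells on that plate plus 3 SD, cut at about 29% in these data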
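system = U2OS cells with stable human MC4R expression | also added = Melanotan II challenge after compound preincubation | dosing = one concentration, 6.5 µM nominal | incubation = compound 30 min, challenge 1 h, detection 1 h | measured by = TR-FRET with Eu-cAMP and labeled anti-cAMP, 671 nm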
HDAC3 inh: HDAC3 deacetylase inhibitors, primary screen, biochemical, fluorescence, cell-free homogeneous; inhibition, % at 8.3 µM; Histone deacetylase 3 (Homo sapiens), O15379; 320,000 compounds, 0.15% hits; recombinant HDAC3, fluorogenic peptide/trypsin coupled; in the data active means inhibition above about 26%, passing the limit was not always enough
Yeast UUG start: alters start codon recognition fidelity in yeast; AID 602363; activity score, % at 18.7 µM; 350,000 tested, 0.13% active; S. cerevisiae UUG-firefly luciferase reporter, luminescence/redox ratio;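 active means replicate mean at a twofold rise or more, about +100% in these data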;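 further: firefly luciferase made from a UUG start codon reports start codon fidelity; reporter light over untreated wells divided by growth signal over untreated wells; some hits fall short of that in this replicate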
MC4R ag barr: MC4R agonists recruiting beta-arrestin, primary screen, cell-based, luminescence, agonist arm of biased-ligand search; Melanocortin receptor 4 (Homo sapiens), P32245; U2OS MC4R beta-arrestin complementation; percent of melanotan II response, DMSO zero; activation, % at 8.9 µM; 360,000 compounds, 0.98% hits; AID 540308, 2011;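 active means activation above a per-plate cutoff, the mean activation of sample wells on that plate plus 3 SD, cut at about 8% in these data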
Of the large screens only hits and unclear results are named; the others gave an inactive call.

Protein sequences, listed by entry. Tags and fused reporters are not part of them.
Melanocortin receptor 4 (Homo sapiens), P32245, UniProt P32245, whole entry, looked up: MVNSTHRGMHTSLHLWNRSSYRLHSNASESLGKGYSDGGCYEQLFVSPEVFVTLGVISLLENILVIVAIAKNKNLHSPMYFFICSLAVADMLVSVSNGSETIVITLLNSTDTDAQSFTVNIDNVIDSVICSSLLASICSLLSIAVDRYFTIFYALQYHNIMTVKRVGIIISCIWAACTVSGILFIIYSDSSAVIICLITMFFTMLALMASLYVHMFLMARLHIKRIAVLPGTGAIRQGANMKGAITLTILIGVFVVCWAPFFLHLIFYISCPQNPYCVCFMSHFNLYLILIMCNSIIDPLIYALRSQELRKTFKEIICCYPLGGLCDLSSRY

C[C@@H]1CN([C@@H](C)CO)C(=O)c2cc(C3=CCCCC3)cnc2O[C@@H]1CN(C)Cc1cccnc1	none (no result: NALP1 yeast inh, ALR H2O2 inh, MC4R antag cAMP, HDAC3 inh, MC4R ag barr)
C[C@@H]1CCCCO[C@H](CN(C)S(=O)(=O)c2ccccc2)[C@H](C)CN([C@@H](C)CO)C(=O)c2cc(NC(=O)Cc3ccccc3)ccc2O1	none (no result: NALP1 yeast inh, ALR H2O2 inh, MC4R antag cAMP, HDAC3 inh, MC4R ag barr)
O=C(CNS(=O)(=O)c1ccccc1)N/N=C/c1ccc(O)cc1	ALR H2O2 inh 99 (no result: Yeast UUG start)
O=C(CNS(=O)(=O)c1ccccc1)N/N=C\c1ccc(Cl)cc1	none (no result: ALR H2O2 inh)
C/C(=N\Nc1ccc([N+](=O)[O-])cc1[N+](=O)[O-])C(C)(C)C(C(=O)O)C(=O)O	ALR H2O2 inh 83
O=C(N[C@H]1CC[C@H](CCn2cc(C3(O)CCCC3)nn2)O[C@H]1CO)C1CCC1	none (no result: NALP1 yeast inh, ALR H2O2 inh, MC4R antag cAMP, HDAC3 inh, MC4R ag barr)
c1ccc2c(c1)CC(N1CCCCC1)c1ccccc1N2 (stereo not given)	ALR H2O2 inh 85
Nc1ccc2oc(-c3cccs3)nc2c1	ALR H2O2 inh 98
Cc1ccc(-c2nc3cc(N)ccc3o2)c(C)c1	ALR H2O2 inh 99
CC(C)(C)c1ccc(-c2nc3cc(N)ccc3o2)cc1	ALR H2O2 inh 99 (no result: NALP1 yeast inh)
CCOC(=O)N1CCN(c2ccccc2O)CC1	ALR H2O2 inh 99
O=C(c1ccc2ccccc2n1)N1CCN(c2ccccc2)CC1	none
COc1ccccc1N1CCN(C(=O)c2cc(C)oc2C)CC1	none (no result: ALR H2O2 inh, HDAC3 inh, Yeast UUG start)
O=C(c1ccc2ccccc2n1)N1CCN(c2ccccc2O)CC1	ALR H2O2 inh 98 (no result: Yeast UUG start)
Cc1cccc(N2CCN(C(=O)C(C)C)CC2)c1C	none
Cc1cc(C(=O)N2CCN(c3ccccc3O)CC2)c(C)o1	ALR H2O2 inh 98 (no result: NALP1 yeast inh)
CC(C)C(=O)N1CCN(c2ccccc2N)CC1	ALR H2O2 inh 99
C[C@@H]1CCCCO[C@@H](CN(C)S(C)(=O)=O)[C@H](C)CN([C@@H](C)CO)C(=O)c2cc(NS(=O)(=O)c3cn(C)cn3)ccc2O1	none (no result: NALP1 yeast inh, ALR H2O2 inh, MC4R antag cAMP, HDAC3 inh, MC4R ag barr)
C[C@H](CO)N1C[C@H](C)[C@H](CN(C)S(=O)(=O)c2cn(C)cn2)OCCCC[C@H](C)Oc2ccc(NC(=O)Nc3ccc(C(F)(F)F)cc3)cc2C1=O	none (no result: NALP1 yeast inh, ALR H2O2 inh, MC4R antag cAMP, HDAC3 inh, MC4R ag barr)
COc1cccc(N2CCN(C(=O)c3cc(C)oc3C)CC2)c1	ALR H2O2 inh 90 (no result: NALP1 yeast inh)
CC(C)N1CCC2(CC1)N=C(c1ccc3c(c1)OCO3)CC(c1cc(Cl)ccc1O)N2 (stereo not given)	NALP1 yeast inh 68 (no result: Yeast UUG start)
COc1ccccc1NC(=S)N(CCN1CCOCC1)Cc1ccccc1F	none
CCN1CCCc2cc(CN(CCN3CCOCC3)C(=S)Nc3ccccc3OC)ccc21	ALR H2O2 inh 99 (no result: Yeast UUG start)
CCN1CCCc2cc(CN(CCN3CCOCC3)C(=S)Nc3cccc(C)c3)ccc21	ALR H2O2 inh 95
CCN1CCCc2cc(CN(CCN3CCOCC3)C(=S)Nc3ccccc3C)ccc21	ALR H2O2 inh 99 (no result: Yeast UUG start)
C[C@H]1CN([C@@H](C)CO)C(=O)c2cc(-c3ccncc3)cnc2O[C@@H]1CN(C)C(=O)c1ccc(F)cc1	none (no result: NALP1 yeast inh, ALR H2O2 inh, MC4R antag cAMP, HDAC3 inh, MC4R ag barr)
O=C(c1ccc2c(c1)C(=O)N(Cc1ccco1)C2O)N1CCOCC1 (stereo not given)	ALR H2O2 inh 87
Cc1ccccc1C(=O)NC(=S)N(C)C1CCCCC1	none
CN(C(=S)NC(=O)c1ccccc1Br)C1CCCCC1	ALR H2O2 inh 99
C[C@H](CO)N1C[C@H](C)[C@H](CN(C)C(=O)Nc2ccccc2)Oc2ncc(/C=C/c3ccccc3)cc2C1=O	none (no result: NALP1 yeast inh, ALR H2O2 inh, MC4R antag cAMP, HDAC3 inh, MC4R ag barr)
CN1CCN(C(=O)C[C@@H]2CC[C@H]3[C@@H](COC[C@@H](O)CN3Cc3ccc4c(c3)OCO4)O2)CC1	none (no result: NALP1 yeast inh, ALR H2O2 inh, MC4R antag cAMP, HDAC3 inh, MC4R ag barr)
COc1ccc(S(=O)(=O)N2CCCC(C(=O)NCc3ccncc3)C2)cc1Cl (stereo not given)	NALP1 yeast inh 26
COc1ccc(S(=O)(=O)N2CCC(C(=O)NCc3ccncc3)CC2)cc1Cl	none
C[C@@H]1CN([C@H](C)CO)C(=O)Cc2cc(NC(=O)c3ccncc3)ccc2O[C@H]1CN(C)CC1CCCCC1	none (no result: NALP1 yeast inh, ALR H2O2 inh, MC4R antag cAMP, HDAC3 inh, MC4R ag barr)
COc1ccc(NC(=O)N(C)C[C@@H]2OCCCC[C@H](C)Oc3ccc(NC(=O)C4CCCCC4)cc3C(=O)N([C@H](C)CO)C[C@H]2C)cc1	none (no result: NALP1 yeast inh, ALR H2O2 inh, MC4R antag cAMP, HDAC3 inh, MC4R ag barr)
CCOc1ccccc1N1CC(C(=O)Nc2ccccc2N2CCCC2)CC1=O (stereo not given)	ALR H2O2 inh 88 (no result: NALP1 yeast inh)
O=C(Nc1ccccc1N1CCCC1)C1CC(=O)N(Cc2ccccc2)C1 (stereo not given)	ALR H2O2 inh 97 (no result: NALP1 yeast inh)
O=C(Cc1ccccc1)N1C[C@H]2[C@@H](c3ccccc31)[C@H](CO)N2C(=O)c1cccc(F)c1	none (no result: NALP1 yeast inh, ALR H2O2 inh, MC4R antag cAMP, HDAC3 inh, MC4R ag barr)
C[C@@H]1CN([C@@H](C)CO)C(=O)Cc2cc(NS(=O)(=O)c3cn(C)cn3)ccc2O[C@H]1CN(C)Cc1ccc(Cl)c(Cl)c1	none (no result: NALP1 yeast inh, ALR H2O2 inh, MC4R antag cAMP, HDAC3 inh, MC4R ag barr)
N#C/C(=C\c1ccc(C(=O)O)cc1)S(=O)(=O)c1cc(Br)ccc1Br	ALR H2O2 inh 92 (no result: Yeast UUG start)
O=C(C[C@H]1C=C[C@H](NC(=O)c2cccc(F)c2)[C@@H](CO)O1)NCCN1CCCC1	none (no result: NALP1 yeast inh, ALR H2O2 inh, MC4R antag cAMP, HDAC3 inh, MC4R ag barr)
CCCNC(=O)N(C)C[C@@H]1Oc2ncc(-c3ccc(OC)cc3)cc2C(=O)N([C@H](C)CO)C[C@@H]1C	none (no result: NALP1 yeast inh, ALR H2O2 inh, MC4R antag cAMP, HDAC3 inh, MC4R ag barr)
CC(C)(C)c1[nH]nc2c1C(c1ccc(OC(=O)c3ccco3)cc1)C(C#N)=C(N)O2 (stereo not given)	HDAC3 inh 54
O=[N+]([O-])c1ccccc1N=Nc1ccc(O)cc1	ALR H2O2 inh 80 (no result: NALP1 yeast inh, Yeast UUG start)
